In paper PMC12518634, “The noncanonical function of liver-type phosphofructokinase potentiates the efficacy of HDAC inhibitors in cancer” (Signal Transduction and Targeted Therapy, 2025):

System: 1405R3
Assay: High-throughput drug screen, CellTiter-Glo viability, 72 h
Type: cell-based, human

CCNC(=O)C[C@@H]1N=C(c2ccc(Cl)cc2)c2cc(OC)ccc2-n2c(C)nnc21 [I-BET-762]
EC50: 1290 nM
